For this assay, the system named is Danio rerio. Kind of assay: Novel tank test (NTT). It is filed as in vivo. As to conditions: most informative dosage, Figure 2B. On the procedure: Control groups were treated in parallel with vehicle alone. For drug injection, the fish were anesthetized briefly by placing them in 10°C water. The vehicle controls were tested in parallel.
Behavioral testing was initiated 10 min after drug injection, starting with the novel tank test (NTT), followed immediately thereafter by the light–dark box (LDB) and the social preference test (SPT). The NTT was adapted from [Maximino et al. (2013)] with the behavior video-recorded and the data processed using EthoVision XT14 (Noldus). The distance traveled, speed, number of visits to the bottom, middle and top thirds of the aquarium, respectively, and the times spent in each of these zones during the initial 5 min in the tank were recorded. […] The behavior in the LDB ([Maximino et al., 2011]) and SPT ([Parker et al., 2014]) was video recorded and processed using RealTimer (Open Science LCC, Russia). […] The time spent and the number of visits to the light and dark flanking zones and the latency to enter the lit zone were recorded during a 5-min session. […] For the SPT, the residence time and the number of visits to the three equally sized zones (near the shoal, in the center zone of the aquarium, and near the wall opposite to the shoal) were assessed during a 5-min session. […]

`CN1C(=O)CN=C(c2ccccc2)c2cc(Cl)ccc21` [Diazepam]: the “NTT, effect on total distance traveled vs vehicle” value is reported as “unaffected”.
